Experimental data published in patent US9561259B2, “Cyclosporin analogs” (priority 2010, dated 2017).

Legend:
[1] = target: T1, Calcineurin + Cyp A (Homo sapiens, UniProt P62937+P63098+Q08209); experiment: Calcineurin phosphatase (CaN) assay with Cyp A (1:1 complex with inhibitor); format: biochemical; details: read-out: CaN + Cyp A IC-50
T1 construct: purchased Enzo Life Sciences (kit); Sigma (Cyp A) BML-AK804; C3805
From the text: (§1) Calcineurin is a serine-threonine protein phosphatase that on activation dephosphorylates members of the nuclear factor of activated T cells (NFAT), which are important in T lymphocyte activation. Cs A bound to cyclophilin A (“Cyp A”) inhibits calcineurin activity, thus resulting in immunosuppressive effects. […] Calmodulin is also required for calcineurin activity and RII phosphopeptide is used as an efficient peptide substrate for calcineurin. We have modified the method to enable measurement of Cyp A-dependent and Cyp-A-independent inhibition of calcineurin through the addition of Cyp A in a 1:1 complex with the inhibitor. The detection of free phosphate released is based on the classic Malachite green assay. Enzo Life Sciences CaN Assay Kit: BML-AK804 […] inhibitor compounds were diluted in UPW in polypropylene low-binding 96 well plates at 5× the final assay concentration. […] Cs A inhibitor controls were also prepared to obtain a final concentration of 10 μM Cs A with and without 10 μM Cyp A. […] The assay plate was placed in an oven at 30° C. for 15 minutes to equilibrate to the reaction temperature. The reaction was started by the addition of 10 μl RH-peptide (0.15 mM final concentration). The reaction was allowed to proceed at 30° C. for a time period in which the reaction is linear for about 60 minutes. The reaction was then terminated by adding 100 μl of the Malachite Green reagent. The color was allowed to develop for 15-30 minutes at room temperature before the absorbance at 620 nm was measured using a plate reader (Molecular Devices—SpectraMax M5). The data were analyzed by subtracting ‘no Calcineurin blank’ from all the absorbance readings and plotting the background corrected absorbances against Log10 inhibitor concentration. A sigmoidal-dose response curve was fitted to the data using GraphPad Prism Software.

[2] = Epimerization in MeOH at 50° C. (500 MHz NMR); details: methanol at 50° C., conversion measured by 500 MHz NMR
[3] = target: T2, Calcineurin (Homo sapiens, UniProt Q08209); experiment: Calcineurin phosphatase (CaN) assay without Cyp A; format: biochemical; details: read-out: CaN − Cyp A IC50
T2 construct: purchased Enzo Life Sciences BML-AK804
From the text: as §1

[4] = target: T3, human recombinant Cyp A (Homo sapiens, UniProt P62937); experiment: Protease-free PPlase assay; format: biochemical; details: read-out: Cyp A IC-50 (nM) Protease Free-PPlase Assay; 2 nM enzyme, 60 μM SUC-AAPF-pNA, 10° C.
T3 construct: purchased Sigma C3805
Method: The protease-free PPlase assay measures the rate of cis to trans conversion of a peptide substrate catalyzed by the enzyme cyclophilin A. Addition of an inhibitor slows the catalyzed rate and a Ki value is obtained. Materials Assay Buffer:
35 mM HEPES pH 7.8, filtered through a 0.2 μm filter. 50 μM DTT was added prior to use each day and then the buffer was stored on ice.
human recombinant Cyp A (Sigma C3805) enzyme was diluted to 1 μM with enzyme dilution buffer (20 mM HEPES pH 7.8, 40% glycerol, 50 μM DTT and 1 μM BSA) and stored at −20° C.
SUC-AAPF-pNA (from Bachem AG, L-1400), 20 mg/ml prepared 0.5 M LiCl in trifluoroethanol.
All readings were taken with an Agilent 8453 Spectrophotometer which consists of a cuvette holder, stirrer and chiller to maintain a stirred cuvette temperature of 10.0±0.1° C. The temperature is monitored by the use of temperature probe. To prevent UV degradation of test compounds, the light below 290 nm was blocked using a glass slide in the light path. 1.5 ml of assay buffer was put into a 3 ml quartz cuvette and cooled to 10.0±0.1° C. while stirring (vigorous but not so fast as to produce cavitation). The inhibitor was diluted in 100% DMSO, and then added to the assay to a maximum final concentration of 0.5% DMSO in the assay. A blank spectrum was obtained, then 3 μL of enzyme was added (2 nM final concentration) and then 3 μL substrate (60 μM final concentration) added. The absorbance was measured at 330 nm for 300 s or 500 s for blank runs (NOTE: the substrate must be added in one quick injection and the measurements started immediately to minimize mixing errors).
A first order rate equation was fitted to the absorbance data, for each concentration of inhibitor, to obtain the rate constant (the first 10 to 15 seconds were excluded as mixing causes errors in this portion of curve). The catalytic rate was calculated from the enzymatic rate constant minus the background rate constant. An exponential curve was generated using the catalytic rate constants versus the inhibitor concentration to obtain the Ki value for the inhibitor.

Substance	IC50 [1]	Reduction in rate of epimerization (relative to [(R)-(3-diethylaminoethylthio-Sar]^3 cyclosporin A) at position 3 (α-carbon of the 3-position amino acid (sarcosine) of Cs scaffolds) [2]	IC50 [3]	IC50 [4]
[(R)-(3-(4-methyl-piperazin-1-yl)-propylthio)-Sar]^3 Cyclosporin A [Example 3]	3.9 µM	>1,000	8.6 µM	2.8 nM
[(R)-(3-morpholin-4-yl-propylthio)-Sar]^3 Cyclosporin A [Example 1]	4.2 µM	>1,000	3.9 µM	1.7 nM
[(R)-(3-ethylisopropylamino-propylthio)-Sar]^3 Cyclosporin A [Example 2]	5.7 µM	>1,000	7.8 µM	4.9 nM
